Data on two molecules can be found in ChEMBL document CHEMBL1123414, “Neurochemistry of aging. 1. Toxins for an animal model of Alzheimer's disease” (J Med Chem, 1986).

The chains behind the UniProt entries cited, without tags or fusion partners.
UniProt Q8BGY9, whole entry: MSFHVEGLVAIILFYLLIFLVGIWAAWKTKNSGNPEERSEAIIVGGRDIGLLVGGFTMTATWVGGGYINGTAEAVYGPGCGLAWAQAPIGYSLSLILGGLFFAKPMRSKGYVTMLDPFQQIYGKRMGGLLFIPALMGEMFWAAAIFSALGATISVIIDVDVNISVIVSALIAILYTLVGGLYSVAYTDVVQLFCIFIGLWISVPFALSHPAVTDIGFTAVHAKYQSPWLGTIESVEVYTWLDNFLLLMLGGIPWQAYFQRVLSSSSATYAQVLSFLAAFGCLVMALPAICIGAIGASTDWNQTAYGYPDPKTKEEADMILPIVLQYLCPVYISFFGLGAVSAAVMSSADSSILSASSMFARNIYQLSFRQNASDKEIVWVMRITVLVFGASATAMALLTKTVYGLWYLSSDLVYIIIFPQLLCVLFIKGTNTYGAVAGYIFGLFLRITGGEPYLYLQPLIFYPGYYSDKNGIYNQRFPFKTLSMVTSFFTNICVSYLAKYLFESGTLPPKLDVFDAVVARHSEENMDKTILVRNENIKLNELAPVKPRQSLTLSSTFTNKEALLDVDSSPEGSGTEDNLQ
UniProt P08483, whole entry: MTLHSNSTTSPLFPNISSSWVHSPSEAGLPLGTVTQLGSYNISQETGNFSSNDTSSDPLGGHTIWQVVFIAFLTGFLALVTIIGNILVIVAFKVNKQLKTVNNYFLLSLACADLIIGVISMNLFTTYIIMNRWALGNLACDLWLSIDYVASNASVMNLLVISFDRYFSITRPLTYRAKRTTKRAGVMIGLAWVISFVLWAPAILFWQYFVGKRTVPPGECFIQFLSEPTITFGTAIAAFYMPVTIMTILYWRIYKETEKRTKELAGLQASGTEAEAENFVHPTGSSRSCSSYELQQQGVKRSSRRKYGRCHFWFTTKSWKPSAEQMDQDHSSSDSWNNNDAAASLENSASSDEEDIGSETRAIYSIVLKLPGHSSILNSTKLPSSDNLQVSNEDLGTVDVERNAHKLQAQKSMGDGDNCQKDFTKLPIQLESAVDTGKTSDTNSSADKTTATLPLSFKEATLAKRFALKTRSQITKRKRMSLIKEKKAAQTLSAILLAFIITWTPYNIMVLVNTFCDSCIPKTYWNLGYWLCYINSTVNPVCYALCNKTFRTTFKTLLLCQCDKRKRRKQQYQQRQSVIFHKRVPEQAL

Assay [1] deals with High affinity choline transporter 1 (Mus musculus, UniProt Q8BGY9). In words: In vitro ability to inhibit the transport of [3H]choline in to high affinity choline transport system HAChT.
Assay [2] has as its target Muscarinic acetylcholine receptor M3 (Rattus norvegicus, UniProt P08483). In words: Compound was tested in vitro for its ability to displace [3H]QNB from brain Muscarinic acetylcholine receptor by 50 %.

Structures are written as SMILES.

Turning to `CC(C)[N+]1(CCO)CC1`, the IC50 – broadly, the concentration that gives 50% inhibition – in assay [1] stood at 2.6 µM.
As to `OCC[N+]1(C2CC2)CC1`, the IC50 in assay [2] was found to be 6.25 µM.
